# Binding of CDR-mutated scFvs to a peptide of the spike HR2 region

Reference: Engelhart et al. 2022, doi:10.1038/s41597-022-01779-4. File: FLAb, binding data.

The target is the same throughout: PDVDLGDISGINAS, from the HR2 region of SARS-CoV-2 spike.

The variants keep the heavy chain, the linker and the frameworks of Ab-14 (scFv order VH, a (GGGGS)3 linker, VL).
VH: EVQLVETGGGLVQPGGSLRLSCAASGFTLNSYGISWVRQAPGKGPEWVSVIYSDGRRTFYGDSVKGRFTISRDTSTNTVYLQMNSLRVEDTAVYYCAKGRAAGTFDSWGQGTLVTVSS
VL: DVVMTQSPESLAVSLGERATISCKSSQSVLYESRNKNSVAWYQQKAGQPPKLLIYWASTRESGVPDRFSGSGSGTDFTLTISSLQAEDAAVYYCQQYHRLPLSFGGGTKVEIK

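The starting antibody came from a phage panning campaign against this peptide. AAYL50 was designed without a model: most single CDR substitutions and a random sample of double and triple ones. In AlphaSeq, yeast of one mating type display the scFv and yeast of the other type display the target. Mating (16 h, 30 °C) was followed by selection of diploids and sequencing of their barcodes. A regression on co-assayed BCL2-family reference pairs converts the normalised counts of each replicate to an apparent Kd. Each pool was mated in three replicate cultures.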

Substitutions are numbered in sequence along the VL above, starting at 1 (not Kabat). Every variant below is changed at R34 of the VL (sequential numbering). Affinities are written as log10 Kd with Kd in nM; a lower number is a better binder. Averages over replicates are reported, and they cover detected replicates only. "no signal" marks a missing value. The strain was present, yet no cells mated with the target were sequenced in any replicate, which points to weak or no binding. For reference, the parent read 0.65 as the reference entry and 1.68 as a member of this library. Three control strains display no target. For library AAYL50, 18% of the pairings with them gave a signal, with a median of 4.19 and one signal in twenty below 2.99, so weak values seen in few replicates may be background. Also given: how often the same scFv was detected with the empty control strains.

- S28K+R34F+S58I = 2.74 (3 of 3 replicates; controls 1 of 9)
- R34P+E61A+S103I = 4.40 (2 of 3 replicates; controls 3 of 9)
- V29C+R34Q+P101H = no signal (0 of 3 replicates; controls 1 of 9)
- V29F+R34F+L102Q = 4.54 (1 of 3 replicates; controls 4 of 9)
- K24S+R34Y+L102M = 2.29 (3 of 3 replicates; controls 0 of 9)
- R34K+S38Y+S62C = 2.72 (2 of 3 replicates; controls 2 of 9)
- R34N+S38T+Y97H = no signal (0 of 3 replicates; controls 2 of 9)
- S28A+R34H+S58I = no signal (0 of 3 replicates; controls 0 of 9)
- R34V+K36Y = 1.20 (3 of 3 replicates; controls 0 of 9)
- S33A+R34N+L102A = 4.48 (1 of 3 replicates; controls 2 of 9)
- R34M+S58P+Q95L = no signal (0 of 3 replicates; controls 0 of 9)
- S28F+R34E+R99I = 0.77 (3 of 3 replicates; controls 0 of 9)
- R34D+N37D+W56P = no signal (0 of 3 replicates; controls 0 of 9)
- R34M+V39Y+S58L = no signal (0 of 3 replicates; controls 0 of 9)
- E32R+R34Q+S62Q = 5.07 (1 of 3 replicates; controls 2 of 9)
- R34C+Q95A+Y97F = 1.27 (3 of 3 replicates; controls 3 of 9)
- S25I+R34T+N35L = 0.48 (3 of 3 replicates; controls 2 of 9)
- K24H+R34K+P101C = 1.17 (3 of 3 replicates; controls 0 of 9)
- R34T+V39T+S62Y = no signal (0 of 3 replicates; controls 1 of 9)
- R34C+W56H+Y97T = 2.21 (3 of 3 replicates; controls 6 of 9)
- S25F+Q27T+R34E = no signal (0 of 3 replicates; controls 0 of 9)
- R34Q+K36R+W56R = no signal (0 of 3 replicates; controls 0 of 9)
- K24F+S25C+R34E = 0.77 (3 of 3 replicates; controls 2 of 9)
- K24T+R34K+S38H = 2.31 (3 of 3 replicates; controls 0 of 9)
- K24A+R34D+K36Q = 1.71 (3 of 3 replicates; controls 6 of 9)
- S25I+Q27L+R34Y = 0.88 (3 of 3 replicates; controls 1 of 9)
- S26H+R34I+P101N = 4.36 (2 of 3 replicates; controls 6 of 9)
- Y31Q+R34I+K36H = 0.39 (3 of 3 replicates; controls 4 of 9)
- V29M+R34G+H98L = 0.20 (3 of 3 replicates; controls 5 of 9)
- R34E+N37W+R60E = 1.15 (3 of 3 replicates; controls 3 of 9)
- Q27A+R34C+Q96D = no signal (0 of 3 replicates; controls 1 of 9)
- R34M+A40T+S103F = no signal (0 of 3 replicates; controls 0 of 9)
- R34Q+N37R+S38V = 4.52 (2 of 3 replicates; controls 5 of 9)
- V29G+R34M+S62C = 1.25 (3 of 3 replicates; controls 1 of 9)
- R34N+E61P+S103A = -0.12 (3 of 3 replicates; controls 1 of 9)
- R34K+Q96T+P101S = 1.81 (3 of 3 replicates; controls 5 of 9)
- R34P+K36T = no signal (0 of 3 replicates; controls 0 of 9)
- R34K+S38C+Q96R = 3.19 (3 of 3 replicates; controls 2 of 9)
- S25V+R34C+N35V = 0.71 (3 of 3 replicates; controls 0 of 9)
- V29R+R34W+S58G = 4.15 (2 of 3 replicates; controls 3 of 9)
- K24W+R34I+V39N = no signal (0 of 3 replicates; controls 0 of 9)
- E32I+R34K+T59Q = 2.12 (3 of 3 replicates; controls 0 of 9)
- R34A+K36H = 0.55 (3 of 3 replicates; controls 0 of 9)
- S33E+R34K+K36A = 0.68 (3 of 3 replicates; controls 2 of 9)

A selection of 7 entries from above:

* S25F+Q27T+R34E -> no signal (0 of 3 replicates; controls 0 of 9)
* R34C+Q95A+Y97F -> 1.27 (3 of 3 replicates; controls 3 of 9)
* R34N+E61P+S103A -> -0.12 (3 of 3 replicates; controls 1 of 9)
* R34M+A40T+S103F -> no signal (0 of 3 replicates; controls 0 of 9)
* S25I+Q27L+R34Y -> 0.88 (3 of 3 replicates; controls 1 of 9)
* R34A+K36H -> 0.55 (3 of 3 replicates; controls 0 of 9)
* V29F+R34F+L102Q -> 4.54 (1 of 3 replicates; controls 4 of 9)